Data reported in patent US9630894B2, “Energy efficient method and apparatus for the extraction of biomolecules from dilute aqueous solution” (DYNASEP INC., priority 2012, dated 2017).

Columns and labels:
Assay type in all cases: physicochemical
[1] = CCC extraction with DME of clarified fermentation broth from Clostridium acetobutylicum, GC and DNS assay
Procedure: This example describes three different runs of the CCC with fermentation broth from Clostridium acetobutylicum. […] The fermentation was intentionally interrupted prior to completion.
The extraction column operated at room temperature (˜25° C.) throughout the column. Periodic extract and raffinate samples were taken and analyzed for the constituents in the extract and raffinate discharges.
This example describes three different runs. In all cases, the mass of solvent to the mass of feed ratio (S/F) was 0.9. In all example the fermentation broth was first centrifuged to removal all cellular matter. Thus, the feed solution was clarified. In the case of the first run, the following components were measured via gas chromatograph (GC) analysis using external standard calibration. The external standard was run prior to analyzing the samples to provide individual calibration between peak area and the respective constituent under measure. […] Acetate was the conjugate base of acetic acid. Butyrate was the conjugate base of butyric acid. All components were quantified in the extract and raffinate. Since the extract and raffinate are mostly water and DME dissolves in water to approximately 20 wt. %, the samples were allowed to degas over a 24 hour period.
During the run, samples were taken of the extract and raffinate. In the case of the extract, the bulk DME was removed by reduction of pressure and addition of heat to flash the DME from the water and other solution constituents.
Extract and raffinate samples were collected at periodic intervals during the CCC testing. […] Glucose was measured via a DNS (3,5-dinitrosalicylic acid) assay.
In cases where the extract formed a two phase solution, the extract samples were diluted with distilled water to create a single phase and homogenous sample prior to GC. The dilution factor was then used to correct the GC measurements for concentrations prior to dilution.

[2] = Distribution coefficients of ABE mixtures between DME and aqueous phase in agitated pressure vessel, HPLC
Procedure: The compositions of the aqueous mixtures were based on concentrations typically produced in a cellulosic fermentation.
Mixtures were charged to a pressure vessel and agitated to provide adequate contacting between the aqueous and solvent (DME) phases. Heat tape was used to control the temperature of the liquid that was measured by thermocouples. Pressure and temperature measurements were taken every five minutes. After temperature and pressure stabilization agitation was ceased and the liquid phases were allowed to fully settle.
A mass balance was also performed on each component of the ABE and BE mixtures to determine a degree of accuracy of the results.

[3] = Packed-column extraction of ethanol and ABE solutions with liquid DME, incremental distribution coefficients; settings: for Distribution Coefficient: ABE solution
Procedure: The tests were carried out in a 50-inch long by 0.68-inch internal diameter (ID) column containing stainless steel distillation packing to increase mass transfer between the liquid DME and the aqueous solution. The flow rate of the liquid DME for all the tests was about […], which calculates to a superficial velocity of the liquid DME of ˜0.3 cm/sec.
For each test, about 65 g of a pre-made feed solution was charged to the extraction column, and the column was sealed. DME was introduced into the system and pressure was maintained at 250 psi with the lab pump. Each run was carried out at ambient temperature (about 30° C.), and flow was manually controlled with the pressure-reduction valve.
About ⅓ of the charge was extracted in each test with DME in three fractions, and the raffinate was collected at the end of each test in two fractions. In the event that the concentration of ethanol, or ABE, in the raffinate was not homogeneous along the length of the column, the raffinate was collected in two fractions where RAF#1 was the first (bottom) portion of the raffinate drained and RAF#2 was the remaining (upper) portion.
All samples along with controls were sent to R.D. Laboratories (Washington, Mo.) for gas chromatography (GC) analysis.
The distribution coefficient (DC) is calculated as the ratio of the concentration of the component in the extract (y) phase to the concentration of the component in the raffinate (x) phase, or DC=Cy/Cx. Using the material balance information in the tables above, and the component analysis supplied by R.D. Labs, the incremental DCs for each fraction were calculated. These DCs are calculated using the conservative assumption that there is no dissolved DME in the liquid phase remaining in the extractor.

n-butanol
Distribution Coefficient ([1]; Run 1, calculated from extract and raffinate measurements, ~25° C., S/F 0.9): ~2.5
distribution coefficients compared ([1]; Run 2, isobutanol versus butanol): approximately equal
concentration in sample ([1]; Run 3, Extract Bot, time 31 min): 33910 µg/mL
concentration in sample ([1]; Run 3, Extract Bot, time 37 min): 34660 µg/mL
concentration in sample ([1]; Run 3, Extract Top, time 31 min): 304970 µg/mL
concentration in sample ([1]; Run 3, Extract Top, time 37 min): 318400 µg/mL
concentration in sample ([1]; Run 3, Extract, time 22 min): 19100 µg/mL
concentration in sample ([1]; Run 3, Extract, time 27 min): 32630 µg/mL
concentration in sample ([1]; Run 3, Extract, time 43 min): 32950 µg/mL
concentration in sample ([1]; Run 3, Extract, time 70 min): 29580 µg/mL
concentration in sample ([1]; Run 3, Extract, time 74 min): 31100 µg/mL
concentration in sample ([1]; Run 3, Extract, time 78 min): 32830 µg/mL
concentration in sample ([1]; Run 3, Extract, time 82 min): 36640 µg/mL
concentration in sample ([1]; Run 3, Feed, time 0 min): 9430 µg/mL
concentration in sample ([1]; Run 3, Raffinate, time 22 min): 2040 µg/mL
concentration in sample ([1]; Run 3, Raffinate, time 27 min): 320 µg/mL
concentration in sample ([1]; Run 3, Raffinate, time 31 min): 300 µg/mL
concentration in sample ([1]; Run 3, Raffinate, time 37 min): 180 µg/mL
concentration in sample ([1]; Run 3, Raffinate, time 43 min): 160 µg/mL
concentration in sample ([1]; Run 3, Raffinate, time 70 min): 310 µg/mL
concentration in sample ([1]; Run 3, Raffinate, time 74 min): 330 µg/mL
concentration in sample ([1]; Run 3, Raffinate, time 78 min): 340 µg/mL
concentration in sample ([1]; Run 3, Raffinate, time 82 min): 340 µg/mL
distribution coefficient (slope of line fit) ([2]; 38° C., DME/aqueous): 2.86
distribution coefficient (slope of linear line fit) ([2]; extract versus raffinate concentration, whole range, FIG. 5): 2.9
DC ([2]; test ABE1, 31.1 ° C., 104 psig, DME/aqueous): 2.95
DC ([2]; test ABE2, 38.3 ° C., 102 psig, DME/aqueous): 2.72
DC ([2]; test ABE3, 38.3 ° C., 103 psig, DME/aqueous): 2.74
DC ([2]; test ABE4, 38.0 ° C., 103 psig, DME/aqueous): 2.97
DC ([2]; test B1, […] C., 78 psig, DME/aqueous): 3.17
DC ([2]; test B2, 28.2 ° C., 83 psig, DME/aqueous): 3.71
DC ([2]; test B3, 29.6 ° C., 86 psig, DME/aqueous): 2,49
DC ([2]; test BE1, 30.1 ° C., 85 psig, DME/aqueous): 2.70
DC ([2]; test BE2, 38.9 ° C., 107 psig, DME/aqueous): 2.84
DC ([2]; test BE3, 37.6 ° C., 103 psig, DME/aqueous): 2.89
DC ([2]; test BE3, 38.4 ° C., 106 psig, DME/aqueous): 3.03
Distribution Coefficient ([3]; fraction F1, liquid DME): 0.95
Distribution Coefficient ([3]; fraction F2, liquid DME): 0.36
Distribution Coefficient ([3]; fraction F3, liquid DME): 0.04
distribution coefficient, previous measurements ([3]; previous results, DME/aqueous): approximately one
